Values quoted from earlier work, collected in US20050090520A1, “Treatment of disease or injury of the nervous system with FTY720” (priority 2003, published 2005).

The chains behind the UniProt entries cited, without tags or fusion partners.
UniProt P21453, whole entry, species assumed: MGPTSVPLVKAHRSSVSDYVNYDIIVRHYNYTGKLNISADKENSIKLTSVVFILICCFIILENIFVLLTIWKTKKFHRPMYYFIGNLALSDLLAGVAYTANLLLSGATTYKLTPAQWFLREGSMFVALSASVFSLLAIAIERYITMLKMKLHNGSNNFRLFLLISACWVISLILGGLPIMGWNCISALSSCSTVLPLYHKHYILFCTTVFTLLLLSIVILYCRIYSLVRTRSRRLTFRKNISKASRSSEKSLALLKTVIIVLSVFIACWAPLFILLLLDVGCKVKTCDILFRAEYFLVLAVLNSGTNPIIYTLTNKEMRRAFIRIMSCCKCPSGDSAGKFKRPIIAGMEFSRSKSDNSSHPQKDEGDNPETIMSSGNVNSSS

Target: S1P1 (Homo sapiens, UniProt P21453)
Settings: Mandala et al., 2002; CHO cell membranes; read-out: Binding (IC50) S1P1; cited from earlier work

For CCCCCCCCc1ccc(CCC(N)(CO)CO)cc1 [FTY720, 2-amino-2-[2-(4-octylphenyl)ethyl]-1,3-propanediol], the IC50 is given as 0.3 µM.
